Here are results for one compound from patent US20190292167A1, “HETEROAROMATIC COMPOUNDS USEFUL FOR THE TREATMENT OF PROLIFERATIVE DISEASES” (Syros Pharmaceuticals, Inc., priority 2013, published 2019).

The chains behind the UniProt entries cited, without tags or fusion partners. Where a name states a change or a piece, a line headed by the entry shows the natural chain unless it says otherwise.
UniProt P50613: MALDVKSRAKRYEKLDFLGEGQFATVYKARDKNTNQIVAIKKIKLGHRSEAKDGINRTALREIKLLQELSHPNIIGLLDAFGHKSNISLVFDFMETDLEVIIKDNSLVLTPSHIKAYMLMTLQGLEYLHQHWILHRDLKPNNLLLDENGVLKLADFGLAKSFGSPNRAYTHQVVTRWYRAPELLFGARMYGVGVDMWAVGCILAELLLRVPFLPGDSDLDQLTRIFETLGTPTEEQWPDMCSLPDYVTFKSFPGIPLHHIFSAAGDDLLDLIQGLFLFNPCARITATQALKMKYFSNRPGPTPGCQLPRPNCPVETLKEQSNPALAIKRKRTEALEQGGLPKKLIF

This experiment has as its target CDK7/Cyclin H/MAT1 trimeric complex (Homo sapiens, UniProt P50613). In words: Caliper/LabChip EZ Reader CDK7 inhibition assay.

In turn, `Cc1cc(NC(=O)/C=C/CN(C)C)ccc1C(=O)N1CCC(Nc2ncc(Cl)c(-c3c[nH]c4ccccc34)n2)CC1` [Compound 114, (E)-N-(4-(4-(5-chloro-4-(1H-indol-3-yl)pyrimidin-2-ylamino)piperidine-1-carbonyl)-3-methylphenyl)-4-(dimethylamino)but-2-enamide] showed an IC50 of 100 to 1000 nM.

Broadly, the IC50 is the midpoint of a concentration-inhibition curve. Read a high IC50 as weaker potency in that assay.
